The data set in a line: Water solubility determination by quantitative 1H-NMR in D2O. The format is physicochemical. Particulars: qNMR in D2O, pH 8.0-8.5 (NaOD), room temperature, potassium hydrogen phthalate external standard. An excerpt: The obtained PCT-derived sodium phosphonates were subjected to water solubility tests (Table 3). For this purpose, we used a quantitative ^1H-NMR approach in D2O, using potassium hydrogen phthalate as an external standard (for experimental details see Supporting Information). The presence of the basic forms of phosphonates[80] was ensured by the careful addition of NaOD, maintaining pH 8.0–8.5 during the quantification, which is 2–3 units higher than the pKa of phosphonic acid disalt. […] This is by at least two to three orders of magnitude higher than the reported solubilities of the parent natural triterpenic acids. […] Indeed, phosphonic acids are more acidic and easier ionizable than carboxylic acids. This ionic character helps to increase the aqueous solubility as exemplified by here described compounds.
Water solubility determination
To suspension of PCT phosphonate sample (10 mg) in D2O (500 µL) 0.8% solution of NaOD in D2O was added dropwise until pH = 8-8.5 (<100 µL). Obtained suspension was sonified in ultrasonic bath for 10 min. Undissolved particles were separated by centrifugation. Clear D2O solution was carefully transferred to NMR tube equipped with external standard vial.
Formula (1) was used to determine the solubility of PCT sample in the D2O.
[…]
SolPCT - solubility of PCT sample in D2O at room temperature (mg/mL) […]

For the substance “Sodium (3-oxo-(17R)-17-28-norlup-20(29)-en)-2-oxoethyl-phosphonate [7a]”, the “Aqueous solubility in D2O at pH 8.0…8.5” value is given as 11 mg/mL.

The values above are taken from paper PMC11564732, “Synthesis and preliminary cytotoxicity evaluation of water soluble pentacyclic triterpenoid phosphonates” (Scientific Reports, 2024).
